# AlphaSeq binding of Ab-14 light chain variants to a spike HR2 peptide

Source: Engelhart et al. 2022 (doi:10.1038/s41597-022-01779-4), MIT Lincoln Laboratory and A-Alpha Bio; data file from the FLAb repository.

Target: peptide PDVDLGDISGINAS, taken from heptad repeat 2 (HR2) of SARS-CoV-2 spike.

Ab-14 is the parent antibody, in scFv form: VH, then a (GGGGS)3 linker, then VL. The heavy chain is unchanged in all variants.
VH: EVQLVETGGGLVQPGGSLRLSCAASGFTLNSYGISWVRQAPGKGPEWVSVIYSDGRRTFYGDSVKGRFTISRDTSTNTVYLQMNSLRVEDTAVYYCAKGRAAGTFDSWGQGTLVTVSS
VL: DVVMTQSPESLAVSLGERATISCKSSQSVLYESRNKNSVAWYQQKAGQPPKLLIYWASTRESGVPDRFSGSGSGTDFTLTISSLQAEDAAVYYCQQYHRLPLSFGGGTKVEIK

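The parent was found by panning a naive human phage display library on the peptide. AAYL50 was designed without a model: most single CDR substitutions and a random sample of double and triple ones. AlphaSeq pools MATa yeast showing the antibodies with MATalpha yeast showing the peptide. Binding brings cells together so that they mate, and sequencing counts the barcode pairs among the diploids. Each replicate has its own calibration line, from reference interactions of the BCL2 family. The assay was run in three technical replicates.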

The parent's light chain CDRs are KSSQSVLYESRNKNSVA, WASTRES, QQYHRLPLS; each variant's own CDRs replace them letter for letter.
Scale: log10 of Kd in nM, estimated from mating counts; low values are strong binders.
Averages over replicates are reported, and they cover detected replicates only.
"ND" marks a missing value. The strain was present, yet no cells mated with the target were sequenced in that replicate, which points to weak or no binding.

CDR-L1	CDR-L2	CDR-L3	log10 Kd, replicates	mean, log10 nM	empty controls
KSSQSVLYESRNKNEWA	WASTRES	QQYGRLPLS	ND ND ND	ND	1/9 (5.69)
KSSQVVLYESRNKNSVA	WAATREW	QQYHRLPLS	4.44 ND ND	4.44	3/9 (4.64)
KSSQSVLYESRNKMSVA	WASTRES	QQYHWLPLS	ND ND ND	ND	2/9 (4.38)
KSSQSVHYESRNKNSVA	WASTRES	QQYHALPFS	0.97 1.26 1.14	1.12	1/9 (5.08)
KSSQSVNYESRNKNSVA	WASTRES	KQYHNLPLS	0.73 0.87 0.97	0.86	1/9 (2.96)
KISQSVLYELRNKNSVA	WASTSES	QQYHRLPLS	ND ND ND	ND	0/9
KSSQSDLYESRNKNSVA	WASERES	QQYHRLSLS	0.92 1.11 1.10	1.04	2/9 (4.25)
TSSQSVLYESRNKGSVA	WARTRES	QQYHRLPLS	3.96 ND ND	3.96	1/9 (5.70)
KSSQSVLYEWRLKNSVL	WASTRES	QQYHRLPLS	ND ND ND	ND	0/9
KSSQSVLYERRNKNSVA	LASTRES	QQYHFLPLS	ND 4.33 ND	4.33	4/9 (3.56)
KSSQSVLYESRNKNSVA	WACTRES	CQYHRLVLS	0.95 0.21 0.99	0.72	0/9
KSLQSVLYESDNKNSVA	WASTRES	QQYHRIPLS	1.92 1.89 2.08	1.97	0/9
KSSQSVLYESRNKNSVA	WASTRES	QQYHRHPLS	0.86 1.03 1.17	1.02	0/9
KSRQSVLYESRNKNAVA	WTSTRES	QQYHRLPLS	1.05 1.32 1.29	1.22	1/9 (3.43)
KSIQSVLYHSRNKNSVA	WAKTRES	QQYHRLPLS	4.93 4.29 ND	4.61	3/9 (3.85)
QRSQSVLYESRNKNSVA	WASTRES	QPYHRLPLS	3.73 4.08 3.64	3.82	3/9 (3.89)
KSSQSVLFESRNMNSVA	KASTRES	QQYHRLPLS	1.07 1.41 1.25	1.25	1/9 (3.50)
KSSQSVLYESRNKNSLA	WASTRES	MQYHRKPLS	4.63 4.41 6.19	5.08	3/9 (4.73)
KSSQSVLYESRNKNSVA	YASTRES	QQYHREPSS	4.48 ND ND	4.48	3/9 (4.04)
KSGQSVLYESRNKNSVA	WASTRES	TQYHRCPLS	ND ND ND	ND	1/9 (4.35)
KSSTSVLYESRNKNSVA	KASTRES	QQYHRAPLS	ND ND ND	ND	1/9 (3.41)
KSSLSVLYESRNKNSVA	WDSTRES	QQHHRLPLS	2.06 2.29 2.33	2.23	1/9 (4.95)
KSSQSVLYESRNKNSVQ	WASTRES	QDYHDLPLS	ND 3.28 ND	3.28	0/9
KSSQSVLYESRNDNQVA	WASNRES	QQYHRLPLS	1.32 1.24 1.06	1.21	2/9 (3.92)
KSSLSVLYESRNKNSVA	WDSTRES	QQYFRLPLS	ND ND ND	ND	1/9 (4.56)
VSSYSVLYESRNKNSVA	WVSTRES	QQYHRLPLS	ND 4.48 ND	4.48	3/9 (3.60)
KSSQSVLYESRNKNSVN	VASTRES	QQYHRLLLS	ND ND ND	ND	2/9 (4.35)
KSQQSVLYESRNKNSVA	WASTRES	QQYHCLPLM	ND ND ND	ND	0/9
KSSQSVLYWSRNKWSVA	WASTDES	QQYHRLPLS	ND ND ND	ND	1/9 (3.42)
KSSQSVLYESREKNSVA	WTYTRES	QQYHRLPLS	3.25 2.65 3.51	3.14	2/9 (4.86)
LSSQSVLYESRNANSVA	WAVTRES	QQYHRLPLS	1.52 1.60 1.77	1.63	2/9 (3.98)
KSSQSVLYESRNKNSVA	WASTRES	MQYHHLPLP	ND ND ND	ND	0/9
KSSQSVLYESWNKNSVA	WASTQES	QQYHALPLS	ND 2.36 ND	2.36	2/9 (3.00)

The opening 5 entries, copied out:

CDR-L1	CDR-L2	CDR-L3	log10 Kd, replicates	mean, log10 nM	empty controls
KSSQSVLYESRNKNEWA	WASTRES	QQYGRLPLS	ND ND ND	ND	1/9 (5.69)
KSSQVVLYESRNKNSVA	WAATREW	QQYHRLPLS	4.44 ND ND	4.44	3/9 (4.64)
KSSQSVLYESRNKMSVA	WASTRES	QQYHWLPLS	ND ND ND	ND	2/9 (4.38)
KSSQSVHYESRNKNSVA	WASTRES	QQYHALPFS	0.97 1.26 1.14	1.12	1/9 (5.08)
KSSQSVNYESRNKNSVA	WASTRES	KQYHNLPLS	0.73 0.87 0.97	0.86	1/9 (2.96)

Empty control strains, which show no peptide, gave a signal in 18% of pairings with library AAYL50; the median was 4.19 and 95% of these signals were weaker than 2.99. No background was subtracted. For each scFv, signals with the empty controls are counted beside the result, with their mean in brackets.